# Laboratory results taken from patent US20240391942A1 (priority 2021, published 2024).
# Columns and labels:
# KS-1 = details: KS-1, Glioblastoma, 72 hours
# CCRF-CEM = details: Acute lymphoid T-cell leukemia, 72 hours
# CCF-STTG1 = details: CCF-STTG1, Cerebral astrocytoma, 72 hours
# SUP-B15 = details: SUP-B15, Acute lymphoid B-cell leukemia, 72 hours
# TT = details: Medullary thyroid carcinoma, 72 hours
# AN3 CA = details: Adenocarcinoma of the endometrium, 72 hours
# IMR-32 = details: IMR-32, Neuroblastoma, 72 hours
# RD = details: Malignant embryonal rhabdomyosarcoma, 72 hours
# NOMO-1 = details: NOMO-1, Acute myeloid leukemia (AML), 72 hours
# REH = details: Acute non-B or non-T cell lymphoma, 72 hours
# MRC-5 cells = test: MTT cell viability of TGF-β1-treated MRC-5 cells
# K-562 = test: Tumor cell proliferation (CellTiter-Glo); details: K-562, Myeloma, 72 hours
# KG-1 = test: Tumor cell proliferation (CellTiter-Glo); details: KG-1, Myeloma, 72 hours
# NAMALWA = test: Tumor cell proliferation (CellTiter-Glo); details: Blood cancer, 72 hours
# SK-HEP-1 = test: Tumor cell proliferation (CellTiter-Glo); type: cell-based; details: SK-HEP-1, Liver cancer, 72 hours
# SK-OV-3 = test: Tumor cell proliferation (CellTiter-Glo); type: cell-based; details: SK-OV-3, Ovarian cancer, 72 hours
# [1] = tested on: α-SMA, Calponin1 and Collagen Type I expression in MRC-5 cells; test: Protein immunoblotting of fibrosis markers in TGF-β1-treated MRC-5 cells; details: MRC-5, 5 ng/mL TGFβ1, certain concentrations, 24 h
# [2] = Pharmacokinetics in male SD rats (single IV or oral gavage)
# SH-SY5Y cells = test: MTT cell viability of CBE-treated SH-SY5Y cells; details: 50 nM, 24 h
# [3] = tested on: TNF-α and CD206 expression in BV2 cells; test: Immunofluorescence of TNF-α and CD206 in LPS-stimulated BV2 cells; details: BV2, 1 μg/mL LPS, a certain concentration, 12 h
# A7R5 cells = test: A7R5 cell migration capacity (scratch assay); details: control 100%, Ang2 184%±[…]
# [4] = tested on: α-SMA and Calponin1 expression in MRC-5 cells; test: Immunofluorescence staining of α-SMA and Calponin1 in TGF-β1-treated MRC-5 cells; details: 24 h
# ApoE−/− mice = test: Body weight and blood glucose of high-fat diet-fed ApoE−/− mice; details: 12 weeks
# [5] = tested on: X-ray irradiated C57BL/6 mice; test: X-ray irradiation damage in C57BL/6 mice (leukocytes, body weight, saliva)
# MDA-MB-231 = test: Tumor cell proliferation (CellTiter-Glo); details: MDA-MB-231, Breast cancer, 72 hours
# HT-29 = test: Tumor cell proliferation (CellTiter-Glo); details: HT-29, Colon cancer, 72 hours
# MCF7 = test: Tumor cell proliferation (CellTiter-Glo); details: MCF7, Breast cancer, 72 hours
# U-2 OS = test: Tumor cell proliferation (CellTiter-Glo); details: Bone cancer, 72 hours
# [6] = tested on: PCNA, MMP9 and Collagen-1 protein expression; test: Western blotting of PCNA, MMP9 and Collagen-1 in Ang2-treated A7R5 cells; details: Ang2, 50 nM; control 100%, Ang2 220%±22.4% (FIG. 52A)
# HCC827 = test: Tumor cell proliferation (CellTiter-Glo); type: cell-based; details: HCC827, Lung cancer, 72 hours
# A-431 = test: Tumor cell proliferation (CellTiter-Glo); type: cell-based; details: A-431, Skin cancer, 72 hours
# U-937 = test: Tumor cell proliferation (CellTiter-Glo); type: cell-based; details: U-937, Lymphoma, 72 hours
# NCI-H1299 = test: Tumor cell proliferation (CellTiter-Glo); type: cell-based; details: NCI-H1299, Lung cancer, 72 hours
# A-375 = test: Tumor cell proliferation (CellTiter-Glo); type: cell-based; details: A-375, Melanocarcinoma, 72 hours
# A549 = test: Tumor cell proliferation (CellTiter-Glo); type: cell-based; details: A549, Lung cancer, 72 hours
# HepG2 cells = test: Oil red O staining and triglycerides in oleic acid-treated HepG2 cells; details: HepG2, 0.5 mM oleic acid, 50 nM, 24 hr
# [7] = tested on: SH-SY5Y cells (lysosomal storage); test: Lyso-tracker staining of CBE-treated SH-SY5Y cells
# [8] = tested on: LX-2 cells (ACTA2, COL1A1, TGFβ1 mRNA); test: RT-qPCR of fibrosis genes in TGF-β-treated hepatic stellate cells; details: LX-2 cell, 100 nM, TGF-β 5 ng/mL, 24 hours
# [9] = tested on: HRMC cells (COL16A1, COL4A1, CTGF mRNA); test: RT-qPCR of fibrosis genes in TGF-β-treated renal mesangial cells; details: HRMC cell, 100 nM, TGF-β 1 ng/mL, 24 hours
# [10] = tested on: NHCF-V cells (ACTA2, CTGF, PAI-1 mRNA); test: RT-qPCR of fibrosis genes in TGF-β-treated cardiac fibroblasts; details: NHCF-V cell, 100 nM, TGF-β 1 ng/mL, 24 hours
# [11] = tested on: myocardial primary fibroblasts; details: 100 nM, anoxia 24 h; control 100%±5.0%, hypoxic group 137%±[…]
# [12] = MRC-5, 5 ng/mL TGF-β1, different concentrations, 4 hours
# [13] = single IV 0.1 mg/Kg (head: PAO 0.11, F2mPAO 0.08, d5PAO 0.09 mg/kg), mean
# [14] = single oral gavage 0.2 mg/Kg (head: PAO 0.22, F2mPAO 0.17, d5PAO 0.19 mg/kg), mean
compound,measurement,setting,value
[2H]c1cc([2H])c([As]=O)c([2H])c1 (stereo not drawn),IC50,KS-1,30.9 nM
same,IC50,CCRF-CEM,23.9 nM
same,IC50,CCF-STTG1,94.7 nM
same,IC50,SUP-B15,22.9 nM
[2H]c1ccc([As]=O)c([2H])c1 (stereo not drawn),IC50,TT,107 nM
same,IC50,AN3 CA,40.7 nM
same,IC50,IMR-32,24.1 nM
same,IC50,KS-1,45.9 nM
same,IC50,CCRF-CEM,31.9 nM
same,IC50,RD,25.7 nM
same,IC50,CCF-STTG1,130 nM
same,IC50,NOMO-1,59.4 nM
same,IC50,SUP-B15,33.6 nM
same,IC50,REH,22.4 nM
"3,5-Difluoro-PAO",cell viability (MTT) versus 5 ng/mL TGF-β1-treated group,"MRC-5 cells; MRC-5, 5 ng/mL TGF-β1, 100 nM, 24 hours",significant decrease
same,cell viability (MTT) versus 5 ng/mL TGF-β1-treated group,MRC-5 cells; [12],no significant change
same,IC50,K-562,59.3 nM
same,IC50,KG-1,85.3 nM
same,IC50,NAMALWA,39.3 nM
same,IC50,SK-HEP-1,50.4 nM
same,IC50,SK-OV-3,159 nM
same,Calponin1 expression (immunoblotting) versus TGFβ1 alone,[1],significant decrease
same,AUC0-inf,[2]; [13],6976 ng·h/mL
same,AUCExtra,[2]; [13],4.86%
same,AUMCExtra,[2]; [13],32.7%
same,C0,[2]; [13],1943 ng/mL
same,MRT0-inf,[2]; [13],10.81 h
same,MRT0-last,[2]; [13],7.62 h
same,Tlast,[2]; [13],48.0 h
same,AUC0-inf,[2]; [14],6406 ng·h/mL
same,AUCExtra,[2]; [14],3.37%
same,AUMCExtra,[2]; [14],12.5%
same,MRT0-inf,[2]; [14],16.3 h
same,MRT0-last,[2]; [14],14.8 h
same,Tlast,[2]; [14],48.0 h
same,Bioavailability,[2]; single oral gavage 0.2 mg/Kg versus IV 0.1 mg/Kg,45.9%
same,cell viability (MTT) versus 100 μM CBE-treated group,SH-SY5Y cells,significantly increased
O=[As]c1cc(F)c(F)c(F)c1 (stereo not drawn),cell viability (MTT) versus 5 ng/mL TGF-β1-treated group,MRC-5 cells; [12],no significant change
same,CD206 expression level (immunofluorescence) versus LPS-treated group,[3],decreasing trend
same,migration capacity (scratch assay),"A7R5 cells; A7R5, Ang2, 50 nM",155%±6.4%
same,migration capacity (scratch assay),"A7R5 cells; A7R5, Ang2, 100 nM",147%±4.1%
same,α-SMA fluorescence signal intensity versus TGF-β1-treated group,"[4]; MRC-5, 5 ng/mL TGF-β1, 25 nM",significant decrease
same,α-SMA fluorescence signal intensity versus TGF-β1-treated group,"[4]; MRC-5, 5 ng/mL TGF-β1, 50 nM",significant decrease
same,"random, postprandial and fasting blood glucose",ApoE−/− mice,reduced or tended to reduce
same,Salivary weight,"[5]; Day 7, 15 Gy X-ray, PAO 0.3, F3PAO 0.15 mg/kg p.o. qd",0.107 ± 0.016^Y g
same,Salivary weight,"[5]; Day 14, 15 Gy X-ray, PAO 0.3, F3PAO 0.15 mg/kg p.o. qd",^##0.13 ± 0.01 g
same,Salivary weight,"[5]; Day −1 (before irradiation), PAO 0.3, F3PAO 0.15 mg/kg p.o. qd groups",0.145 ± 0.002 g
same,IC50,MDA-MB-231,150 nM
same,IC50,HT-29,155 nM
same,IC50,MCF7,150 nM
same,IC50,KG-1,118 nM
same,IC50,U-2 OS,44.9 nM
same,Collagen-1 protein expression (WB),[6],104%±5.8%
same,IC50,RD,26.7 nM
same,IC50,HCC827,156 nM
same,IC50,A-431,> 200 nM
same,IC50,U-937,121 nM
same,IC50,NCI-H1299,165 nM
same,IC50,A-375,45.6 nM
same,IC50,SK-HEP-1,60.4 nM
same,IC50,SK-OV-3,185 nM
same,IC50,A549,> 200 nM
same,cell viability (MTT) versus 100 μM CBE-treated group,SH-SY5Y cells,significantly increased
same,accumulation of triglycerides,HepG2 cells,significantly reduced
same,IC50,REH,26.8 nM
same,fluorescence intensity of Lyso-tracker versus 100 μM CBE-treated group,[7]; 25 nM,significantly decreased
same,fluorescence intensity of Lyso-tracker versus 100 μM CBE-treated group,[7]; 50 nM,significantly decreased
O=[As]c1ccccc1 (stereo not drawn),AUC0-last,[2]; [13],4010 ng·h/mL
same,AUC0-last,[2]; [14],2314 ng·h/mL
"3,4-Difluoro-PAO",cell viability (MTT) versus 5 ng/mL TGF-β1-treated group,MRC-5 cells; [12],no significant change
same,IC50,TT,120 nM
same,IC50,KS-1,42.1 nM
same,IC50,CCRF-CEM,33.8 nM
same,IC50,K-562,48.6 nM
same,IC50,KG-1,84.2 nM
same,IC50,NAMALWA,31.3 nM
same,"Relative changes in mRNA levels (vs. TGF-β treatment), ACTA2",[8],21%
same,"Relative changes in mRNA levels (vs. TGF-β treatment), COL1A1",[8],−15%
same,"Relative changes in mRNA levels (vs. TGF-β treatment), TGFB1",[8],3%
same,IC50,SK-HEP-1,43 nM
same,IC50,SK-OV-3,113 nM
same,"Relative changes in mRNA levels (vs. TGF-β treatment), COL4A1",[9],−74%
same,"Relative changes in mRNA levels (vs. TGF-β treatment), COL16A1",[9],−78%
same,"Relative changes in mRNA levels (vs. TGF-β treatment), CTGF",[9],−70%
same,Calponin1 expression (immunoblotting) versus TGFβ1 alone,[1],significant decrease
same,"Relative changes in mRNA levels (vs. TGF-β treatment), ACTA2",[10],−69%
same,"Relative changes in mRNA levels (vs. TGF-β treatment), CTGF",[10],−51%
same,"Relative changes in mRNA levels (vs. TGF-β treatment), PAI-1",[10],−35%
[2H]c1c([2H])c([2H])c([As]=O)c([2H])c1[2H] (stereo not drawn),"random, postprandial and fasting blood glucose",ApoE−/− mice,reduced or tended to reduce
same,proliferative capacity of myocardiac fibroblasts (CCK8),[11],97.5%±3.9%
same,AUC0-last,[2]; [13],4337 ng·h/mL
same,AUC0-last,[2]; [14],2445 ng·h/mL
same,accumulation of triglycerides,HepG2 cells,significantly reduced
